Source: patent US20040180925A1, “Dipeptidylpeptidase-IV inhibitor” (priority 2000, published 2004)

By UniProt entry, the sequences of proteins in these tests, tags left out. Residues count along the entry.
UniProt P14740, 37-767 limits assumed: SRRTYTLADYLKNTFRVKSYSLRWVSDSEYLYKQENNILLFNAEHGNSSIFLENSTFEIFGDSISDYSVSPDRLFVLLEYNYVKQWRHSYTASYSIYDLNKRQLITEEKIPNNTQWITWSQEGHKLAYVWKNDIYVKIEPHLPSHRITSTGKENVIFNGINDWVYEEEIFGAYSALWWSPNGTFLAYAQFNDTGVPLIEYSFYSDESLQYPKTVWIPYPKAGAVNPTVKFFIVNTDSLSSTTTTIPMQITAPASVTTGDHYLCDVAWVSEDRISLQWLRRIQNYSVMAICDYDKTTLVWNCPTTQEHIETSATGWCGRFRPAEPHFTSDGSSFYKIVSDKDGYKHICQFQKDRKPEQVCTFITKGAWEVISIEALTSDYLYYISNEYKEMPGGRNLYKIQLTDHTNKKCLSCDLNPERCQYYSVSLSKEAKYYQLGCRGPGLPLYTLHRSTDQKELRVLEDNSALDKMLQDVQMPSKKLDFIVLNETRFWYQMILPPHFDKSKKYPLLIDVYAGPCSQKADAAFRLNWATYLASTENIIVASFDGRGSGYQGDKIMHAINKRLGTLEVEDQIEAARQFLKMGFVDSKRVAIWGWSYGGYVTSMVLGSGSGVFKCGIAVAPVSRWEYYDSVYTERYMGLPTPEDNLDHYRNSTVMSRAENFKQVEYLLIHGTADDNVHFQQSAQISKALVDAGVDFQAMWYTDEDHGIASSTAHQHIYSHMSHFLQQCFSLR

Target: T1, DPP-IV (Rattus norvegicus, UniProt P14740)
T1 construct: The coagulated blood was centrifuged at 3,000 rpm for 20 minutes to separate serum for use in the experiment; from tissue; host or cells: rat serum (blood from the crural aorta, coagulated and centrifuged)
Test: Test for inhibitory action against DPP-IV (rat serum, Gly-Pro-AMC fluorescence)
Assay type: biochemical
Settings: Gly-Pro-AMC 50 μmol/L, pH 7.8, room temperature 20 minutes
Description: Under mild anesthesia with diethylether, a rat was incised at lower left side of the limb, and the crural aorta was cut and blood was collected. The collected blood was immediately ice-cooled. The coagulated blood was centrifuged at 3,000 rpm for 20 minutes to separate serum for use in the experiment. As reaction buffer, an aqueous solution containing HEPES (final concentration of 25 mmol/L) and sodium chloride (final concentration of 140 mmol/L) was prepared so as to give a final pH of 7.8, and used after addition of BSA (final concentration of 1%). An assay was conducted using a black, flat-bottomed 96 well plate. A test sample (2 μL) was added to each well, and the sample was added with rat serum (25 u L) and reaction buffer (25 u L) containing magnesium chloride (80 mmol/L), and the mixture was left stand at room temperature for 5 minutes. […] AMC, which was released by DPP-IV activity, was quantified by measurement of fluorescence at 460 nm which was excited at 390 nm. DPP-IV activity was calculated according to the following equation: […]
F100: Fluorescence intensity of AMC with addition of serum
F0: Fluorescence intensity of AMC without addition of serum
Fs: Fluorescence intensity of AMC with addition of a sample and serum

(R)-3-[1-(3-Cyano-2-pyridyl)-4-piperidyl]aminoacetyl-4-thiazolinecarbonitrile dihydrochloride [Compound 204]
IC50: 0.02 µM
